Our source for the Emax values is patent publication US10239887B2, “Positive allosteric modulators of the muscarinic acetylcholine receptor M4” (Vanderbilt University, priority 2016, dated 2019).

The chains behind the UniProt entries cited, without tags or fusion partners. Residues count along the entry.
UniProt G7PQB4, 1-479: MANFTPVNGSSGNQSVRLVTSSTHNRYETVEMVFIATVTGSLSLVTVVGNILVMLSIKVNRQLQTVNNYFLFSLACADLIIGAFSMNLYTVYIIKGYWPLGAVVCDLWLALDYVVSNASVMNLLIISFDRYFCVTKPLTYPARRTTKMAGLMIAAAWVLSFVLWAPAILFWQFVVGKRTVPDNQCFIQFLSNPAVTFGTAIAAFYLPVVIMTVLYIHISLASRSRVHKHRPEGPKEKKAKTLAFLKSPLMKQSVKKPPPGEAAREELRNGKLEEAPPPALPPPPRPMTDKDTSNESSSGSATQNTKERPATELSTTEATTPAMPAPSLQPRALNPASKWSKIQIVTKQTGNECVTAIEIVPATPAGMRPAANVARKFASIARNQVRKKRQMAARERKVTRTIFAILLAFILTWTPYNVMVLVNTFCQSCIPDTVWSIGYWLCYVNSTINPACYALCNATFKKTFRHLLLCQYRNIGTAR

This assay has as its target cynomolgus monkey M4 (Macaca fascicularis, UniProt G7PQB4). As to the kind of experiment: mAChR M4 cell-based functional assay (calcium flux), cyno M4. Conditions: % ACh maximum at 30 μM. A general note: Calcium assays in cells follow changes in intracellular calcium, usually with a dye or a luminescent sensor.

Regarding `Cc1nnc2sc3c(NCc4ccc(C(C)(C)O)cc4)ncnc3c2c1C` [Compound 76, 2-[4-[[(3,4-Dimethylpyrimido[4′,5′:4,5]thieno[2,3-c]pyridazin-8-yl)amino]methyl]phenyl]propan-2-ol], the Emax was 86%.

The term Emax denotes the size of the effect at its maximum, as opposed to the concentration needed.
